{
  "source": "patent US7739055B2",
  "about": "“Methods and systems for generating and evaluating peptides” (priority 2005, dated 2010)",
  "test_system": "Escherichia coli",
  "conditions": "first concentration that prohibits growth by OD at 24 hours; Table 1",
  "data": [
    {"smiles": "CC[C@H](C)[C@H](NC(=O)CN)C(=O)NCC(=O)N[C@@H](C)C(=O)N[C@H](C(=O)N[C@@H](CC(C)C)C(=O)N[C@@H](CCCCN)C(=O)N[C@H](C(=O)N[C@@H](CC(C)C)C(=O)N[C@H](C(=O)N[C@H](C(=O)NCC(=O)N[C@@H](CC(C)C)C(=O)N1CCC[C@H]1C(=O)N[C@@H](C)C(=O)N[C@@H](CC(C)C)C(=O)N[C@H](C(=O)N[C@@H](CO)C(=O)N[C@@H](Cc1c[nH]c2ccccc12)C(=O)N[C@H](C(=O)N[C@@H](CCCCN)C(=O)N[C@@H](CCCNC(=N)N)C(=O)N[C@@H](CCCCN)C(=O)N[C@@H](CCCNC(=N)N)C(=O)N[C@@H](CCC(N)=O)C(=O)N[C@@H](CCC(N)=O)C(N)=O)[C@@H](C)CC)[C@@H](C)CC)[C@@H](C)O)[C@@H](C)O)C(C)C)C(C)C", "note": "[Melittin]", "values": [
      {"measurement": "MIC E. coli", "value": 16, "unit": "µg/mL"}
    ]}
  ]
}
